Values of other authors in patent US5167824A, “Separation by carrier mediated transport” (priority 1990, dated 1992).

Conditions: therapeutic / anti-inflammatory; cited from earlier work

COc1ccc2cc([C@H](C)C(=O)O)ccc2c1 [naproxen, (+) S-2-(6-methoxy-2-naphthyl) propionic acid]
potency ratio S(+) vs R(-) enantiomer: 28 times
